Test system: striatal monoamines and metabolites
Conditions: 63.5 µmol/kg intraperitoneal; 60 min; vs saline

N[C@@H](Cc1ccc(O)c(O)c1)C(=O)O [L-Dopa]
striatal DOPAC levels: significantly enhanced
